The values below come from patent US9808528B2, “Protein-polymer-drug conjugates and methods of using same” (priority 2014, dated 2017).

This test has as its system NCI-N87 cells. The experiment in a line: Tumor growth response, NCI-N87 xenograft. The test is classed as in vivo, mice. The conditions noted are these: single IV dose; Example 14 at […]; Example 16 at 3 mg/kg. An excerpt:
Mice were sacrificed when tumors reached a size of 800 to 1500 mm^3.

“Trastuzumab-((EG2-MI (2%)-(10 kDa PHF-BA (28%)-(AF-HPA-Ala (9%) [Example 14]”: the “tumor growth response (in words), FIG. 6” value is given as “tumor growth delay response”.
